## Antibody variant affinities, Ab-14 heavy chain, assay 1

Target: peptide PDVDLGDISGINAS, taken from heptad repeat 2 (HR2) of SARS-CoV-2 spike.

Parent: Ab-14, a human scFv built as VH, the linker GGGGSGGGGSGGGGS, VL. Only the CDRs of the heavy chain vary.
VH: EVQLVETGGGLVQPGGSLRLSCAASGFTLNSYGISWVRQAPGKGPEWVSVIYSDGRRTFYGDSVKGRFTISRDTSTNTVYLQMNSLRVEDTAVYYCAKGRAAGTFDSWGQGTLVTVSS
VL: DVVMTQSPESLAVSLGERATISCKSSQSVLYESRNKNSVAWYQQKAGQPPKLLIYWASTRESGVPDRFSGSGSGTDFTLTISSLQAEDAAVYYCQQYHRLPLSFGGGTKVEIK

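Phage display of a naive human antibody library on the peptide gave the parent. AAYL49 was designed without a model: most single CDR substitutions and a random sample of double and triple ones. The scFvs were displayed on barcoded MATa yeast, the peptide on MATalpha yeast. Pairs that bind mate more often; barcode pairs of the diploids are counted by sequencing. Scores were corrected for input abundance and mapped to Kd with protein pairs of known affinity run in the same pool. Mating was done three times.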

Variants are written as CDR1, CDR2 and CDR3 of the heavy chain (limits as in the source). Parent: GFTLNSYGIS, VIYSDGRRTFYGDSVK, GRAAGTFDS. Values are log10 of the apparent Kd in nM; lower means stronger binding. "nd" means that the variant was in the library but no mating with the target was seen in that replicate; the authors take this as a sign of poor binding, and no number exists. Nonspecific signal, from three strains lacking the peptide, appeared in 15% of pairings of library AAYL49, centred on 4.06 (5% of these signals below 2.83); values are not corrected for it. Also given: how often the same scFv was detected with the empty control strains, with their mean in brackets.

| CDR-H1 | CDR-H2 | CDR-H3 | replicates, log10 nM | control signals |
|---|---|---|---|---|
| GFTCRSYGIS | VIYSDGRRTFYGDSVK | GHAAGTFDS | nd nd nd | 0 of 9 |
| GFTLNSYGIS | VIYSDGRRTFPGDSVK | GRAAYTFDQ | nd nd nd | 0 of 9 |
| GFTLNSYGIS | VIYSDGRRTFYGDSVK | GRAAMTVDG | 3.28 2.84 3.70 | 4 of 9 (4.95) |
| GFTLNSYCIS | SIYSDGRRQFYGDSVK | GRAAGTFDS | nd nd nd | 0 of 9 |
| GFTLNSYGIS | VIYSDGWRTFYRMSVK | GRAAGTFDS | 3.38 nd 3.17 | 0 of 9 |
| GFTLWSYGIS | VIYSDGRRTFYGDSVK | GRAARTPDS | nd nd nd | 0 of 9 |
| GFTLASYGYS | VIYSDGRRTFYEDSVK | GRAAGTFDS | nd nd nd | 1 of 9 (3.16) |
| GFTLNSYGGS | TIYSDGRRTFYGDEVK | GRAAGTFDS | nd nd nd | 0 of 9 |
| GFTLNSYGIS | VIYSDGRRTFYGDSVK | GRAKGTFDV | nd 4.25 nd | 6 of 9 (4.23) |
| GFTLNSYGIS | VIYSDGRRTYYGDKVK | GRAAGTFHS | nd nd nd | 0 of 9 |
| GFTLNYYGIS | VIYSYGRRTFMGDSVK | GRAAGTFDS | nd nd nd | 0 of 9 |
| GFTLNSCGSS | VIYSDGRRTFYGDSVK | GQAAGTFDS | nd nd nd | 0 of 9 |
| NFTLNSYGIS | VFYSDGRRTFYGDSVK | GRAEGTFDS | 4.11 5.63 4.33 | 3 of 9 (4.94) |
| GFTLNSYGIS | VIYSCGSRTFYGDSCK | GRAAGTFDS | nd nd nd | 1 of 9 (3.18) |
| GFTLNSYGIS | VSYSDGRRTFWGDSVK | GRHAGTFDS | nd nd 4.38 | 0 of 9 |
| GFTLNSVGIS | VRYSDGRRCFYGDSVK | GRAAGTFDS | nd nd nd | 0 of 9 |
| GLTLNAYGIS | VIYSDGRRTFYGDSVK | GRAAGTFDE | 2.36 1.86 1.77 | 0 of 9 |
| GFTLNSYGIS | VCYSDGRRTFCGDSVK | GRAAGTFYS | nd nd nd | 1 of 9 (3.14) |
| SFTLNSYGIS | VIYSDGRRTPYGDSVK | GRAAGTFDG | nd 2.68 nd | 2 of 9 (4.22) |
| GFTLNSYGIS | VIYSDGRRTFYGDKVK | GRDAGTPDS | nd nd nd | 1 of 9 (4.41) |
| GFTHNSYGIS | VIYSDGNRTFYGDSVK | GRADGTFDS | nd nd nd | 2 of 9 (5.55) |
| HFTLNSRGIS | VIYSDGRREFYGDSVK | GRAAGTFDS | nd nd nd | 0 of 9 |
| GFTLWSYGIS | LIYSDGRRTFYGDSVK | GRAAGTFDA | 4.21 nd nd | 3 of 9 (3.56) |
| GFTLNSYGIS | VIESDTRRTFYGDSVK | VRAAGTFDS | 3.83 nd 5.61 | 2 of 9 (3.89) |
| GFTLNSYGII | VIQSDGRRTFYGDSVK | GRANGTFDS | nd nd 3.47 | 0 of 9 |
| GFTLNSYGIS | VIYSDGRRTKYGDSVK | GRAAGTFDQ | nd 2.66 3.78 | 2 of 9 (3.46) |
| MFTLNSYGIS | VIYSDARRTFYGDSVK | GRCAGTFDS | nd nd nd | 0 of 9 |
| GFTLNSYGIS | VIYSDGARTFYDDSVL | GRAAGTFDS | 1.58 2.02 1.96 | 1 of 9 (4.89) |
| GFTLNSYGIS | VIPSDHSRTFYGDSVK | GRAAGTFDS | nd 4.60 nd | 0 of 9 |
| GFTLFSAGIS | LIYSDGRRTFYGDSVK | GRAAGTFDS | nd nd 2.76 | 0 of 9 |
| GFTLNSYEIS | VIYSDGQITFYGDSVK | GRAAGTFDS | 5.21 4.05 nd | 4 of 9 (4.37) |
| GFILNSYGIS | VCYSDGRRTFYGDSVK | GRAAGTLDS | nd nd nd | 1 of 9 (3.71) |
| GFTLNSYGDS | VIASDGRRTFYMDSVK | GRAAGTFDS | nd nd 2.82 | 0 of 9 |
| GFTLNSYGIY | VIYSDGRRTFYGDSVK | GRAAGTFKS | 4.13 nd nd | 5 of 9 (4.15) |
| GFTLNSCGIS | VVYYDGRRTFYGDSVK | GRAAGTFDS | 5.20 4.91 nd | 1 of 9 (4.25) |
| GFDLNSYGIS | VIYSDGRRTFYGDSVK | GRAAGTFDG | 1.29 1.53 1.43 | 2 of 9 (3.11) |
| GFTLNSYGIS | VIYSAGRRHFYGDSVK | GRAAGTFDS | 5.40 nd nd | 2 of 9 (4.20) |
| GFTSNSYGIS | VIYSDGRVTFYGDSLK | GRAAGTFDS | nd nd nd | 0 of 9 |
| GFTLFSYSIS | VIYSDGRRTFMGDSVK | GRAAGTFDS | nd nd nd | 2 of 9 (3.50) |
| GFTLNYYSIS | VIYSDGRRTFEGDSVK | GRAAGTFDS | nd nd nd | 0 of 9 |
| GFTLNSYGIS | VIYSDCRRTFYGDMVK | GRAAGTFDS | 5.51 nd nd | 0 of 9 |
| YFTLNSCGIS | VIYSDGRRTFYGDSVK | GRYAGTFDS | 4.72 nd nd | 1 of 9 (3.88) |
| GFTFNLYGIS | VIYYDGRRTFYGDSVK | GRAAGTFDS | nd 4.29 nd | 2 of 9 (3.05) |

Values reported by Engelhart et al. 2022, doi:10.1038/s41597-022-01779-4 (FLAb copy).